The results in this text go back to ChEMBL document CHEMBL1143625, “Bisphosphonate inhibitors of Toxoplasma gondi growth: in vitro, QSAR, and in vivo investigations” (J Med Chem, 2005).

The nature of the data set: Therapeutic index (TI) value as ratio of lethal dose (LD50) to the inhibitory concentration (IC50). The conditions noted are these: human, kb. The data set is classed as cell-based.

Regarding `NCCCC(O)(P(=O)(O)O)P(=O)(O)O` [ALENDRONIC ACID], the TI was determined as 1.33.
